Test results published in publication PMC11997059, “Drugit: crowd-sourcing molecular design of non-peptidic VHL binders” (Nature Communications, 2025).

Assay: NMR detected solubility in NMR buffer
Conditions: 500 µM target; 20 mM TRIS, 100 mM NaCl, pH 7.5 in D2O; 1H NMR vs maleic acid

Compound	Solubility in NMR buffer [µM]
Cc1ncsc1-c1ccc(CNC(=O)[C@@H]2C[C@H](O)CN(c3ccccn3)C2)cc1	140.0 (≈ 57.2 µg/mL)
Cc1ncsc1-c1ccc(CNc2cc(Br)c[nH]c2=O)cc1	30.0 (≈ 11.3 µg/mL)

Other lines, results leading:

Solubility in NMR buffer [µM]	Compound
20.0 (≈ 6.75 µg/mL)	C=C(C)c1c[nH]c(=O)c(NCc2ccc(-c3scnc3C)cc2)c1
90.0 (≈ 36.8 µg/mL)	Cc1ncsc1-c1ccc(CNC(=O)[C@H]2C[C@@H](O)CN(c3ccccn3)C2)cc1
20.0 (≈ 7.47 µg/mL)	Cc1ncsc1-c1ccc(CNc2cc(-c3ccccc3)c[nH]c2=O)cc1

≈ marks a conversion by molar mass, not a printed value.
